Ab-95 light chain CDR variants: yeast mating affinities

Reference: Engelhart et al. 2022, doi:10.1038/s41597-022-01779-4. File: FLAb, binding data.

Target: peptide PDVDLGDISGINAS, taken from heptad repeat 2 (HR2) of SARS-CoV-2 spike.

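AAYL52 was designed without a model: most single CDR substitutions and a random sample of double and triple ones. In AlphaSeq, yeast of one mating type display the scFv and yeast of the other type display the target. After mating in shaken culture at 30 °C for 16 h, diploids were selected and their barcode pairs sequenced. Each replicate has its own calibration line, from reference interactions of the BCL2 family. Mating was done three times.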

Parent: Ab-95, a human scFv built as VH, the linker GGGGSGGGGSGGGGS, VL. Only the CDRs of the light chain vary.
VH: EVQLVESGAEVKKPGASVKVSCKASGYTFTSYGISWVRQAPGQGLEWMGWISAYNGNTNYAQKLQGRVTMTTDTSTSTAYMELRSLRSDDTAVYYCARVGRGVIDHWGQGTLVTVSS
VL: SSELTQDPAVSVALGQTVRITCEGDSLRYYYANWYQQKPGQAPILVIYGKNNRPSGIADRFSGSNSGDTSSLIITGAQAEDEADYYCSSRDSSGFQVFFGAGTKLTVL

Changes read parent residue, position, new residue, counted from the first residue of the VL shown. Affinities are written as log10 Kd with Kd in nM; a lower number is a better binder. The mean shown is taken over the replicates in which the pair was detected. "no signal" marks a missing value. The strain was present, yet no cells mated with the target were sequenced in any replicate, which points to weak or no binding. As a blank, each scFv also met three strains without target: over library AAYL52, 28% of these pairings were detected, typically at 3.91 and seldom below 2.90. For each scFv, signals with the empty controls are counted beside the result. In this assay the parent's reference entry averaged 2.31; its copy inside this library read 2.25.

log10 Kd (nM), mean	replicates with signal	control signals	changes
1.57	3/3	3/9	R28A+Y31K+S55E
4.10	1/3	2/9	Y30F+N33E+F98Y
no signal	0/3	1/9	D25P+R28Q+R90V
4.11	3/3	4/9	Y30N+G94W+F95E
2.39	3/3	4/9	R28T+S55A+F98R
1.80	3/3	2/9	S26E+Y30A+A32T
1.28	3/3	6/9	D25V+Y30E+Y31E
3.25	2/3	2/9	R53L+P54R
3.43	3/3	0/9	S55L+R90K+S92R
3.88	3/3	4/9	Y29I+S55W+F98Y
2.26	3/3	2/9	P54N+S88V+S93V
3.53	2/3	1/9	S26T+Q96F+F98Y
2.98	1/3	2/9	L27Y+A32E
1.69	3/3	3/9	Y30G+A32N+S92G
3.60	3/3	3/9	L27C+A32T+P54C
no signal	0/3	1/9	S26D+N33R+P54H
4.09	2/3	2/9	N33E+P54D+S89Q
5.20	1/3	1/9	R53M+F95R+V97P
3.45	2/3	0/9	N51A+S89K+F98Y
3.96	2/3	6/9	G24I+D25W+D91V
no signal	0/3	1/9	N33A+R53A
2.29	3/3	3/9	Y30N+N51A+R90D
2.45	3/3	1/9	D91S+S92C+G94Y
2.86	3/3	2/9	Y29M+S92W
no signal	0/3	4/9	L27W+R28Y+N51E
2.25	3/3	5/9	Y30R+R90D+S93W
no signal	0/3	1/9	A32M+F95C
no signal	0/3	0/9	Y31P+P54Q+R90N
3.01	3/3	6/9	Y30W+N52C+F98G
no signal	0/3	3/9	E23H+L27E+D91G
no signal	0/3	1/9	G24N+K50M+N52L
3.58	2/3	2/9	S26T+R90S+D91P
2.54	3/3	4/9	N33M+S55E+D91F
2.80	3/3	1/9	E23V+P54N+S92I
3.36	2/3	4/9	G24M+L27M+F95D
4.44	2/3	1/9	L27H+S93I+F98Y
1.08	3/3	3/9	Y31D+K50D+S55K
2.83	3/3	3/9	K50H+P54Y
2.17	3/3	1/9	D25L+S55L+F95A
4.52	1/3	2/9	R28M+S55N+D91F
2.95	1/3	0/9	G24I+S26T+S55A
3.80	1/3	0/9	R28Q+K50L+G94P
3.19	1/3	1/9	S26W+N33D+Q96H
4.44	1/3	0/9	K50L+N51D+P54D
0.70	3/3	2/9	S26A+Y30S+D91S
4.36	2/3	5/9	Y29V+G49V+S55A
4.35	2/3	2/9	R28H+R53C+S89F
4.36	1/3	5/9	Y31S+G94E+F98R
3.99	2/3	3/9	R53K+P54T+S93F
3.72	2/3	3/9	G49I+S88V+F95A
3.92	3/3	3/9	N33S+R90E+S93Y
no signal	0/3	3/9	G49T+S93P+G94D
1.37	3/3	3/9	Y29S+S88A+Q96Y
4.28	1/3	1/9	D25H+S89L+G94S
4.59	1/3	3/9	D25Q+A32D+R53W
4.03	2/3	5/9	Y30F+A32P+R53C
no signal	0/3	1/9	L27K+Y31M+R90G
3.49	2/3	5/9	R28F+Y31W+N51D
2.66	3/3	3/9	Y29D+Q96C
2.03	3/3	1/9	Q96V+F98H
3.54	3/3	1/9	R28F+Y31L+F98S
no signal	0/3	1/9	D25K+R53D
0.82	3/3	4/9	Y30N+P54E+S55Q
4.69	2/3	4/9	E23N+G24P+D25Y
no signal	0/3	3/9	R53N+G94L
4.21	1/3	1/9	S26Q+P54Y
4.78	2/3	5/9	Y29T+A32I+G94R
2.07	3/3	4/9	Y30S+K50V+R53A
4.20	1/3	5/9	L27W+G49W+F98C
3.72	2/3	2/9	E23F+K50L+D91M
3.69	1/3	2/9	D25Q+S55M+S89Q
3.81	1/3	4/9	G24S+K50P+R53W
2.87	3/3	5/9	Y31R+Q96M
2.58	3/3	1/9	S88W+S92A+F95G
4.50	2/3	1/9	A32F+N52T